Values of other authors, collected in article PMC6353898, “A Rational Approach for Creating Peptides Mimicking Antibody Binding” (Scientific Reports, 2019).

Test system: EGFR phosphorylation
Design: method as in PMID 23698748
Conditions: cited from earlier work

For “Cetuximab: antibody that binds domain III of the extracellular region of EGFR”, the EGFR phosphorylation inhibition is listed as “around 50%”.
